Experiments:
[1] = target: CYP2D6 (Homo sapiens, UniProt P10635); assay: CYP inhibitor screening kit, yeast microsomes expressing human CYP2D6; settings: Quinidine 3 μM
[2] = target: CYP1A2 (Homo sapiens, UniProt P05177); assay: CYP inhibitor screening kit, yeast microsomes expressing human CYP1A2; settings: α-naphthoflavone 6 μM

Chains of the proteins cited; added tags and fusions are not shown.
UniProt P10635, whole entry: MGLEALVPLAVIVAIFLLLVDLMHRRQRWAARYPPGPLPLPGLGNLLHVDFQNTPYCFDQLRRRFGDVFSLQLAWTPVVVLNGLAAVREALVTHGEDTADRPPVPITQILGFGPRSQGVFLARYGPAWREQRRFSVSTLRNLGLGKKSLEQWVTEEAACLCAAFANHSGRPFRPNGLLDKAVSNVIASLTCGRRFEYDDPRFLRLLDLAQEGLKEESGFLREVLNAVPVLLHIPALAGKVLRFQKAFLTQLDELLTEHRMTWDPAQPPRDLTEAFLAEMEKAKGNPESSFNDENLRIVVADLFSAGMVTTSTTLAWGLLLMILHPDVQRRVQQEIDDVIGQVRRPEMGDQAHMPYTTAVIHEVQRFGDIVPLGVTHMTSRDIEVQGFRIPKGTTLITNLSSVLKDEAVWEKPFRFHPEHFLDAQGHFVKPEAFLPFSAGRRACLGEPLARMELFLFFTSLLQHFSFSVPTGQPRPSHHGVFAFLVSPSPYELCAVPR
UniProt P05177, whole entry: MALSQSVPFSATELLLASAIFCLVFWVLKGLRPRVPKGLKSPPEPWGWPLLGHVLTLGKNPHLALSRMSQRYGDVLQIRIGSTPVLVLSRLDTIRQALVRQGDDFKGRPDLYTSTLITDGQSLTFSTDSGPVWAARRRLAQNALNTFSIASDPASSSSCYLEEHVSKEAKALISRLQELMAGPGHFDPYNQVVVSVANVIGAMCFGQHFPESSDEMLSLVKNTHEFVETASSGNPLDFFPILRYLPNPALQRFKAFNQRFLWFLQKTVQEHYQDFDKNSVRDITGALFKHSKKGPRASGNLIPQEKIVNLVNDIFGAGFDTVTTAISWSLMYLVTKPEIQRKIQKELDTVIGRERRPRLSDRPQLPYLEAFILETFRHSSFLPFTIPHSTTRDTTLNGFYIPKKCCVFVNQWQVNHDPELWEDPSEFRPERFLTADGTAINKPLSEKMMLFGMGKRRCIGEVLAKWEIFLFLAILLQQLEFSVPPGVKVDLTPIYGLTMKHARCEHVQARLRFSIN

C=C[C@H]1C[N@@]2CC[C@H]1C[C@@H]2[C@@H](O)c1ccnc2ccc(OC)cc12 [Quinidine]
Residual activity (% of control) CYP2D6, positive control inhibitor [1]: 2.25 ± 0.24 % of control

O=c1cc(-c2ccccc2)oc2c1ccc1ccccc12 [α-naphthoflavone]
Residual activity (% of control) CYP1A2, positive control inhibitor [2]: ≈ 0 % of control

From paper PMC10296347, “Identification of the Stapled α-Helical Peptide ATSP-7041 as a Substrate and Strong Inhibitor of OATP1B1 In Vitro” (Biomolecules, 2023)
